# Experimental data published in ChEMBL document CHEMBL5137065, “Recent Advances with KDM4 Inhibitors and Potential Applications” (J Med Chem, 2022).
# Target: T1, Lysine-specific demethylase 4B (Homo sapiens, UniProt O94953)
# T1 sequence (O94953 whole entry): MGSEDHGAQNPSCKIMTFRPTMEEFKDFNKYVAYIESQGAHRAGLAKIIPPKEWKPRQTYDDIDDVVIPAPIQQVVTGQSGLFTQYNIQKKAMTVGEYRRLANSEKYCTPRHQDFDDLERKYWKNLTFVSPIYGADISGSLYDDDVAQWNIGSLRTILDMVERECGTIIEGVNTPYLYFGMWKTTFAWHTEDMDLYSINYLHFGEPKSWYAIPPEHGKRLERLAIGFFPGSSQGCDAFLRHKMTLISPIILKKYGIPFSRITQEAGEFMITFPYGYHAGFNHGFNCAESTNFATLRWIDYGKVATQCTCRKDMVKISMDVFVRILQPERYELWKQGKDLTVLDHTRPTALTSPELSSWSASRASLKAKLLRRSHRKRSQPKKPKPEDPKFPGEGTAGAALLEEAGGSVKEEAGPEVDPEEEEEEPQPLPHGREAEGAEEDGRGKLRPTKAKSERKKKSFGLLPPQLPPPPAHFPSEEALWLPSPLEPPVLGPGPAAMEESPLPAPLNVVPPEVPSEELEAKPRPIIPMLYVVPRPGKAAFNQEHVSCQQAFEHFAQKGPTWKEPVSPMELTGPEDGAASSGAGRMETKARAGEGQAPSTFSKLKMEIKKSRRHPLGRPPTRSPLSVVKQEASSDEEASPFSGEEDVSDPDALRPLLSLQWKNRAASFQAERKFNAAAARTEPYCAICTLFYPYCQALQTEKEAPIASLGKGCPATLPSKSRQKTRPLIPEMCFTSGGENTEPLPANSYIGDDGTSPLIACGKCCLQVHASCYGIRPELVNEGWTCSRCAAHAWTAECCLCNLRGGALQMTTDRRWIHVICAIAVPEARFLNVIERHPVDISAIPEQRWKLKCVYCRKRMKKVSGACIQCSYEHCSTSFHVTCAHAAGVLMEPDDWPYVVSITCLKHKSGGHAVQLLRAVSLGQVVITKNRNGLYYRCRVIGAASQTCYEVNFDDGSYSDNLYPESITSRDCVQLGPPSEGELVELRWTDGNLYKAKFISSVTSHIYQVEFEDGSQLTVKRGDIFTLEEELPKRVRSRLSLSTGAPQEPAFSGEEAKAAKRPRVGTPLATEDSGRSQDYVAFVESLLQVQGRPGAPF
# Test: Inhibition of KDM4B (unknown origin) measured by AlphaScreen assay
smiles,measurement,value
CC(C)[C@@H]1NC(=O)[C@@H](Cc2ccc(O)cc2)NC(=O)CSC[C@@H](C(N)=O)NC(=O)[C@H]([C@@H](C)O)NC(=O)[C@H](Cc2ccc(O)cc2)NC(=O)[C@H](Cc2c[nH]c3ccccc23)NC(=O)[C@H](CCCNC(=N)N)NC(=O)[C@H](Cc2c[nH]c3ccccc23)NC(=O)CNC(=O)[C@H](CO)NC(=O)[C@H](CCCNC(=N)N)NC(=O)[C@H]([C@@H](C)O)NC(=O)[C@H](CC(N)=O)NC(=O)[C@H](Cc2ccc(O)cc2)NC1=O,IC50,33 nM
